For this test, the target named is human (hAC) acid ceramidase (Homo sapiens (Human), UniProt Q13510). Briefly: Fluorescent-based in vitro assay of acid ceramidase inhibition. Particulars: human acid ceramidase-enriched lysosomal lysate from HEK293 cells, fluorogenic probe 5 μM, pH 4.5. Format: biochemical. The source says: To evaluate the potency of the compounds towards acid ceramidase, a fluorescence-based in vitro assay previously described in literature (Bedia C et al., ChemBioChem, 2007, 8, 642-648) was implemented and optimized. This assay is based on a “fluorogenic probe” containing a coumarin group and a sphingoid base moiety (see figure below), which is not fluorescent in itself, but upon enzymatic cleavage by acid ceramidase followed by a chemical transformation liberates the fluorescent molecule umbelliferone (7-hydroxychromen-2-one). By quantifying the generation of umbelliferone using a fluorescence plate-reader, the level of enzymatic activity can be measured, whereby IC50 values of compounds that inhibit this activity can be generated.
Lysosomal lysate, enriched with acid ceramidase, was prepared from a cell line stably expressing human acid ceramidase. […]
A lysosomal human acid ceramidase protein preparation was obtained from HEK293 cells stably expressing acid ceramidase suspended in 20 mM Tris HCl (pH 7.5) with 0.32 M sucrose. […] The suspension was finally centrifuged at 105,000×g for 1 h at 4° C. and protein concentration was measured in the supernatant with bicinchinonic-acid based protein assay. […]

Chains of the proteins cited; added tags and fusions are not shown. Residues count along the entry.
UniProt Q13510, 143-395: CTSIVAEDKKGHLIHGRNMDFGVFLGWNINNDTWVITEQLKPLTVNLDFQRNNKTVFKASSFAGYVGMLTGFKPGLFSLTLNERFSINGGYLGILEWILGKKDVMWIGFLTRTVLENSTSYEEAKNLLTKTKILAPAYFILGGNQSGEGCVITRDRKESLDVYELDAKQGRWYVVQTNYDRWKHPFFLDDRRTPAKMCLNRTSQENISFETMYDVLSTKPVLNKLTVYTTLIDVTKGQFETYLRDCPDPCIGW
UniProt Q13510, 22-142: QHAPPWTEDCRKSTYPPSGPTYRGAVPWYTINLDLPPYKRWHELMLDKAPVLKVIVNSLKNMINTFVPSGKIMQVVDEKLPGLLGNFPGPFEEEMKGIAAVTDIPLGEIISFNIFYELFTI

We go through one molecule from US10213416B2, “Substituted benzoxazolone derivatives as acid ceramidase inhibitors, and their use as medicaments” (FONDAZIONE ISTITUTO ITALIANO DI TECNOLOGIA, priority 2014, dated 2019).

Usually IC50 stands for the concentration at which inhibition is half-maximal. A low value points to inhibition by little substance.

In turn, `COc1ccc(C(O)c2ccc3c(c2)oc(=O)n3C(=O)NCCCCCc2ccccc2)cc1` (racemic) [Example 7, (±)-6-[hydroxy-(4-methoxyphenyl)methyl]-2-oxo-N-(5-phenylpentyl)-1,3-benzoxazole-3-carboxamide] yielded a concentration for half-maximal inhibition (IC50) of 220 ± 70 nM.
